# Values of other authors, collected in PMC11423305, “Structure-Based Design of CBP/EP300 Degraders: When Cooperativity Overcomes Affinity” (JACS Au, 2024).
# By UniProt entry, the sequences of proteins in these tests, tags left out.
# UniProt Q92793, whole entry: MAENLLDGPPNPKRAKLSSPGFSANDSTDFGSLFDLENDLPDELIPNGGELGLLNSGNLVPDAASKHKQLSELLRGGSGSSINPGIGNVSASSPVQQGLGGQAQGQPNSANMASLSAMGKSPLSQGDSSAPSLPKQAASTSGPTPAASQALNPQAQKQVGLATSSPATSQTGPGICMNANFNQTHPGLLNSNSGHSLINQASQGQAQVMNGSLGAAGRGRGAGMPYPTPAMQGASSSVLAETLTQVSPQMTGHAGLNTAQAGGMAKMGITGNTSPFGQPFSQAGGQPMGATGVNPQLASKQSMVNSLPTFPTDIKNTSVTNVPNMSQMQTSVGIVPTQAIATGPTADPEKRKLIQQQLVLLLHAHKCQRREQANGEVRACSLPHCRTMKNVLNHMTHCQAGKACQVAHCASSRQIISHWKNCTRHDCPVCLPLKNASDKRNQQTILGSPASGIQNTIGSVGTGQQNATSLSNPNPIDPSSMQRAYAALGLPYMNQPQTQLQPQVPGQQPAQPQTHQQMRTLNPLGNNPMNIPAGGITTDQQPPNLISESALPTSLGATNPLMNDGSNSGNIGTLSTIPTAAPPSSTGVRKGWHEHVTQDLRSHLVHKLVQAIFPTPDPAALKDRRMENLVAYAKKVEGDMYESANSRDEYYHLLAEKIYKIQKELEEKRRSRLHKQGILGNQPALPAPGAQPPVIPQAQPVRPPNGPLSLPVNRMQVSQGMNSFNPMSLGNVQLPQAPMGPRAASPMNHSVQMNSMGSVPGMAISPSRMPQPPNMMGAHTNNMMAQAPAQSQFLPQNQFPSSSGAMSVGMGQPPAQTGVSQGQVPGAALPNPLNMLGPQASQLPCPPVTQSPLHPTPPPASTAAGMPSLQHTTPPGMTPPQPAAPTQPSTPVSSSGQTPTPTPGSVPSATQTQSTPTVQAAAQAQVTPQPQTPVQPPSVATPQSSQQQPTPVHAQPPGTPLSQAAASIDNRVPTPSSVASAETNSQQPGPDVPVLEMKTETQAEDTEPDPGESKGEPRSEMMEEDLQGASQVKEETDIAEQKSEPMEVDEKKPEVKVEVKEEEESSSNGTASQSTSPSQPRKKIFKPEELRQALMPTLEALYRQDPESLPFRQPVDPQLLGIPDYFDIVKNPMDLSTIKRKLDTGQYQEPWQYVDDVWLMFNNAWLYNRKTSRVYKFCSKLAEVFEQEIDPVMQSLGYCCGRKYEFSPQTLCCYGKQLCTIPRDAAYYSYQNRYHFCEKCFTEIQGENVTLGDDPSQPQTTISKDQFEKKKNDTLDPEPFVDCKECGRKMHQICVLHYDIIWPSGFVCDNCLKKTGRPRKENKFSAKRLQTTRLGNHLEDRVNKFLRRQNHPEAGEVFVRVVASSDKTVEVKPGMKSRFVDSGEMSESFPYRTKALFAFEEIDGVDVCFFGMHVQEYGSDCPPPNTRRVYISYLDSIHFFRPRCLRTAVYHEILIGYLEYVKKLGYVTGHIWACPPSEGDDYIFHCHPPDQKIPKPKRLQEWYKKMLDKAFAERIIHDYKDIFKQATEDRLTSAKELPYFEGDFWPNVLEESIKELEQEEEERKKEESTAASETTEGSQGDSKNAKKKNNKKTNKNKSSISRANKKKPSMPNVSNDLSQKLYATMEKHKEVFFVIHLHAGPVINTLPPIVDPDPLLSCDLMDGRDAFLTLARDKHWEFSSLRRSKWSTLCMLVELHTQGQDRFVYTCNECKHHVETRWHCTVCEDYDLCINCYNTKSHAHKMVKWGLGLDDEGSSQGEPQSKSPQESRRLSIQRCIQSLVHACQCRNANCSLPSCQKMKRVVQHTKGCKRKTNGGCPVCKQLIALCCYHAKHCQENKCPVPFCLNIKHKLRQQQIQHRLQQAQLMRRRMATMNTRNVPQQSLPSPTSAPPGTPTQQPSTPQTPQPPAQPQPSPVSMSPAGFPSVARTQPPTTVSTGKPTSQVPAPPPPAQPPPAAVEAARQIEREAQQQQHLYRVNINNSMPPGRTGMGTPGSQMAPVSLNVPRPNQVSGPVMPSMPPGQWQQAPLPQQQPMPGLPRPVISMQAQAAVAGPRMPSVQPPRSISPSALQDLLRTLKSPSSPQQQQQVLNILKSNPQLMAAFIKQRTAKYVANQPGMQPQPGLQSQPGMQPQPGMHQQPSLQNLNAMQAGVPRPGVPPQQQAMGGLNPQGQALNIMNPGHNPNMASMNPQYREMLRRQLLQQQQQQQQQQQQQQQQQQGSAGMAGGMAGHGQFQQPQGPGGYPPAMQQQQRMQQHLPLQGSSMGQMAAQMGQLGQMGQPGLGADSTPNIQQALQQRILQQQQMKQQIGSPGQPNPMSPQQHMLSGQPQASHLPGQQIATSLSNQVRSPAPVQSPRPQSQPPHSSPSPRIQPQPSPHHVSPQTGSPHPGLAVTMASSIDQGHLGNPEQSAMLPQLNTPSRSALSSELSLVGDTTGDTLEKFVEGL
# Target: CBP (Homo sapiens, UniProt Q92793)
# Details: CBP/EP300 degradation; ref 1 (Vannam et al., 2021); cited from earlier work
smiles,measurement,value
CNC(=O)N1CCc2c(c(N3CCCc4cc(-c5cnn(C)c5)c(C(F)F)cc43)nn2C2CCN(C(=O)CCOCCOCCOCCOCCNc3ccc4c(c3)C(=O)N(C3CCC(=O)NC3=O)C4=O)CC2)C1 (stereo not shown),time at which Dmax is reached,2 to 3 h
